Values of other authors as cited in US20070264672A1, “DEVELOPMENT OF A NOVEL ASSAY FOR MGMT (METHYL GUANINE METHYL TRANSFERASE)” (priority 2006, published 2007).

System: human carcinoma HT-29 cell line
Details: combined with BCNU

SMILES: CN(N=O)C(=O)N[C@H]1C(O)O[C@H](CO)[C@@H](O)[C@@H]1O (mixture of isomers) [streptozotocin]
- potentiation of BCNU-induced cytotoxicity over that observed with BCNU alone: three logs
